Patent US20070026408A1, “Materials and methods for analysis of atp-binding cassette transporter gene expression” (priority 2003, published 2007)

Key:
Settings in all cases: HepG2, vinblastine sulfate 25 nM, standard 24
[1] = system: abcA2; assay: DT1 microarray drug screening, drug-treated HepG2: abcA2; type: cell-based, human
Procedure: (§1) The labelled cDNA target preparation was thawed and the 150 μl added to 850 ul hybridisation buffer (500 mM sodium Phosphate pH 6.0, 1% SDS, 1% BSA, 1 mM EDTA) in a 1.5 ml microtube and heated at 95° C. for 10 min.

[2] = system: abcA4; assay: DT1 microarray drug screening, drug-treated HepG2: abcA4; type: cell-based, human
Procedure: as §1

[3] = system: abcA6; assay: DT1 microarray drug screening, drug-treated HepG2: abcA6; type: cell-based, human
Procedure: as §1

[4] = system: abcA7; assay: DT1 microarray drug screening, drug-treated HepG2: abcA7; type: cell-based, human
Procedure: as §1

[5] = system: abcA9; assay: DT1 microarray drug screening, drug-treated HepG2: abcA9; type: cell-based, human
Procedure: as §1

[6] = system: abcA10; assay: DT1 microarray drug screening, drug-treated HepG2: abcA10; type: cell-based, human
Procedure: as §1

[7] = system: abcA12; assay: DT1 microarray drug screening, drug-treated HepG2: abcA12; type: cell-based, human
Procedure: as §1

[8] = system: abcB1; assay: DT1 microarray drug screening, drug-treated HepG2: abcB1; type: cell-based, human
Procedure: as §1

[9] = system: abcB3; assay: DT1 microarray drug screening, drug-treated HepG2: abcB3; type: cell-based, human
Procedure: as §1

[10] = system: abcB6; assay: DT1 microarray drug screening, drug-treated HepG2: abcB6; type: cell-based, human
Procedure: as §1

[11] = system: abcB7; assay: DT1 microarray drug screening, drug-treated HepG2: abcB7; type: cell-based, human
Procedure: as §1

[12] = system: abcB8; assay: DT1 microarray drug screening, drug-treated HepG2: abcB8; type: cell-based, human
Procedure: as §1

[13] = system: abcB9; assay: DT1 microarray drug screening, drug-treated HepG2: abcB9; type: cell-based, human
Procedure: as §1

[14] = system: abcC2; assay: DT1 microarray drug screening, drug-treated HepG2: abcC2; type: cell-based, human
Procedure: as §1

[15] = system: abcC3; assay: DT1 microarray drug screening, drug-treated HepG2: abcC3; type: cell-based, human
Procedure: as §1

[16] = system: abcC7; assay: DT1 microarray drug screening, drug-treated HepG2: abcC7; type: cell-based, human
Procedure: as §1

[17] = system: abcC8; assay: DT1 microarray drug screening, drug-treated HepG2: abcC8; type: cell-based, human
Procedure: as §1

[18] = system: abcC9; assay: DT1 microarray drug screening, drug-treated HepG2: abcC9; type: cell-based, human
Procedure: as §1

[19] = system: abcC10; assay: DT1 microarray drug screening, drug-treated HepG2: abcC10; type: cell-based, human
Procedure: as §1

[20] = system: abcC11; assay: DT1 microarray drug screening, drug-treated HepG2: abcC11; type: cell-based, human
Procedure: as §1

[21] = system: abcC12; assay: DT1 microarray drug screening, drug-treated HepG2: abcC12; type: cell-based, human
Procedure: as §1

[22] = system: abcC13; assay: DT1 microarray drug screening, drug-treated HepG2: abcC13; type: cell-based, human
Procedure: as §1

[23] = system: abcD1; assay: DT1 microarray drug screening, drug-treated HepG2: abcD1; type: cell-based, human
Procedure: as §1

[24] = system: abcD2; assay: DT1 microarray drug screening, drug-treated HepG2: abcD2; type: cell-based, human
Procedure: as §1

[25] = system: abcD4; assay: DT1 microarray drug screening, drug-treated HepG2: abcD4; type: cell-based, human
Procedure: as §1

[26] = system: abcE1; assay: DT1 microarray drug screening, drug-treated HepG2: abcE1; type: cell-based, human
Procedure: as §1

[27] = system: abcF2; assay: DT1 microarray drug screening, drug-treated HepG2: abcF2; type: cell-based, human
Procedure: as §1

[28] = system: abcG1; assay: DT1 microarray drug screening, drug-treated HepG2: abcG1; type: cell-based, human
Procedure: as §1

[29] = system: abcG5; assay: DT1 microarray drug screening, drug-treated HepG2: abcG5; type: cell-based, human
Procedure: as §1

[30] = system: abcG8; assay: DT1 microarray drug screening, drug-treated HepG2: abcG8; type: cell-based, human
Procedure: as §1

[31] = system: abcC1; assay: DT1 microarray drug screening, drug-treated HepG2: abcC1
[32] = system: abcB10; assay: DT1 microarray drug screening, drug-treated HepG2: abcB10

## CC[C@]1(O)C[C@@H]2CN(CCc3c([nH]c4ccccc34)[C@@](C(=O)OC)(c3cc4c(cc3OC)N(C)[C@H]3[C@@](O)(C(=O)OC)[C@H](OC(C)=O)[C@]5(CC)C=CCN6CC[C@]43[C@@H]65)C2)C1 [vin, vinblastine sulfate]
[1]; 2 h
  relative level of abcA2 gene expression: 7.398
[1]; 4 h
  relative level of abcA2 gene expression: 6.087
[1]; 8 h
  relative level of abcA2 gene expression: 9.543
[2]; 2 h
  relative level of abcA4 gene expression: 11.01
[2]; 4 h
  relative level of abcA4 gene expression: 9.361
[2]; 8 h
  relative level of abcA4 gene expression: 15.91
[3]; 2 h
  relative level of abcA6 gene expression: 9.9
[3]; 4 h
  relative level of abcA6 gene expression: 7.85
[3]; 8 h
  relative level of abcA6 gene expression: 14.54
[4]; 2 h
  relative level of abcA7 gene expression: 2.265
[4]; 4 h
  relative level of abcA7 gene expression: 1.808
[4]; 8 h
  relative level of abcA7 gene expression: 3.135
[5]; 2 h
  relative level of abcA9 gene expression: 12.25
[5]; 4 h
  relative level of abcA9 gene expression: 10.2
[5]; 8 h
  relative level of abcA9 gene expression: 18.62
[6]; 2 h
  relative level of abcA10 gene expression: 10.28
[6]; 4 h
  relative level of abcA10 gene expression: 8.659
[6]; 8 h
  relative level of abcA10 gene expression: 10.5
[7]; 2 h
  relative level of abcA12 gene expression: 8.474
[7]; 4 h
  relative level of abcA12 gene expression: 6.774
[7]; 8 h
  relative level of abcA12 gene expression: 8.089
[8]; 2 h
  relative level of abcB1 gene expression: 12.12
[8]; 4 h
  relative level of abcB1 gene expression: 9.658
[8]; 8 h
  relative level of abcB1 gene expression: 11.52
[9]; 2 h
  relative level of abcB3 gene expression: 9.144
[9]; 4 h
  relative level of abcB3 gene expression: 8.4
[9]; 8 h
  relative level of abcB3 gene expression: 14.79
[10]; 2 h
  relative level of abcB6 gene expression: 8.655
[10]; 4 h
  relative level of abcB6 gene expression: 8.468
[10]; 8 h
  relative level of abcB6 gene expression: 7.559
[11]; 2 h
  relative level of abcB7 gene expression: 0.4619
[11]; 4 h
  relative level of abcB7 gene expression: 0.3467
[11]; 8 h
  relative level of abcB7 gene expression: 0.6958
[12]; 2 h
  relative level of abcB8 gene expression: 16.52
[12]; 4 h
  relative level of abcB8 gene expression: 15.3408
[12]; 8 h
  relative level of abcB8 gene expression: 20.22
[13]; 2 h
  relative level of abcB9 gene expression: 12.62
[13]; 4 h
  relative level of abcB9 gene expression: 12.28
[13]; 8 h
  relative level of abcB9 gene expression: 12.23
[14]; 2 h
  relative level of abcC2 gene expression: 1.43
[14]; 4 h
  relative level of abcC2 gene expression: 1.197
[14]; 8 h
  relative level of abcC2 gene expression: 1.419
[15]; 2 h
  relative level of abcC3 gene expression: 12.15
[15]; 4 h
  relative level of abcC3 gene expression: 10.17
[15]; 8 h
  relative level of abcC3 gene expression: 11.29
[16]; 2 h
  relative level of abcC7 gene expression: 13.78
[16]; 4 h
  relative level of abcC7 gene expression: 13.43
[16]; 8 h
  relative level of abcC7 gene expression: 16.12
[17]; 2 h
  relative level of abcC8 gene expression: 0.3533
[17]; 4 h
  relative level of abcC8 gene expression: 0.4535
[17]; 8 h
  relative level of abcC8 gene expression: 0.8805
[18]; 2 h
  relative level of abcC9 gene expression: 9.88
[18]; 4 h
  relative level of abcC9 gene expression: 9.014
[18]; 8 h
  relative level of abcC9 gene expression: 9.735
[19]; 2 h
  relative level of abcC10 gene expression: 10.92
[19]; 4 h
  relative level of abcC10 gene expression: 8.808
[19]; 8 h
  relative level of abcC10 gene expression: 9.007
[20]; 2 h
  relative level of abcC11 gene expression: 9.016
[20]; 4 h
  relative level of abcC11 gene expression: 7.821
[20]; 8 h
  relative level of abcC11 gene expression: 11.1
[21]; 2 h
  relative level of abcC12 gene expression: 8.047
[21]; 4 h
  relative level of abcC12 gene expression: 7.567
[21]; 8 h
  relative level of abcC12 gene expression: 8.523
[22]; 2 h
  relative level of abcC13 gene expression: 9.551
[22]; 4 h
  relative level of abcC13 gene expression: 8.964
[22]; 8 h
  relative level of abcC13 gene expression: 7.491
[23]; 2 h
  relative level of abcD1 gene expression: 10.02
[23]; 4 h
  relative level of abcD1 gene expression: 9.668
[23]; 8 h
  relative level of abcD1 gene expression: 8.254
[24]; 2 h
  relative level of abcD2 gene expression: 6.669
[24]; 4 h
  relative level of abcD2 gene expression: 6.512
[24]; 8 h
  relative level of abcD2 gene expression: 5.888
[25]; 2 h
  relative level of abcD4 gene expression: 8.052
[25]; 4 h
  relative level of abcD4 gene expression: 8.687
[25]; 8 h
  relative level of abcD4 gene expression: 10.28
[26]; 2 h
  relative level of abcE1 gene expression: 6.428
[26]; 4 h
  relative level of abcE1 gene expression: 6.815
[26]; 8 h
  relative level of abcE1 gene expression: 7.531
[27]; 2 h
  relative level of abcF2 gene expression: 9.21
[27]; 4 h
  relative level of abcF2 gene expression: 8.646
[27]; 8 h
  relative level of abcF2 gene expression: 9.398
[28]; 2 h
  relative level of abcG1 gene expression: 9.753
[28]; 4 h
  relative level of abcG1 gene expression: 8.364
[28]; 8 h
  relative level of abcG1 gene expression: 8.727
[29]; 2 h
  relative level of abcG5 gene expression: 6.024
[29]; 4 h
  relative level of abcG5 gene expression: 6.084
[29]; 8 h
  relative level of abcG5 gene expression: 4.099
[30]; 2 h
  relative level of abcG8 gene expression: 9.699
[30]; 4 h
  relative level of abcG8 gene expression: 8.751
[30]; 8 h
  relative level of abcG8 gene expression: 7.316
[31]; 2 h
  relative level of abcC1 gene expression: 16.22
[31]; 4 h
  relative level of abcC1 gene expression: 15.1016
[31]; 8 h
  relative level of abcC1 gene expression: 12.69
[32]; 2 h
  relative level of abcB10 gene expression: 4.259
[32]; 4 h
  relative level of abcB10 gene expression: 3.99
[32]; 8 h
  relative level of abcB10 gene expression: 5.498

Where a name gives a salt, the structure may show the parent alone.
